Assays:
Mu-type opioid receptor = Mu-type opioid receptor (Homo sapiens, UniProt P35372); assay: Displacement of [3H]-naloxone from human mu-opioid receptor transfected in CHO-K1 cell by scintillation counting
[1] = biological target: Delta-type opioid receptor (Homo sapiens, UniProt P41143); assay: Displacement of [3H]-deltorphin 2 from human delta-opioid receptor transfected in CHO-K1 cell by scintillation counting
[2] = biological target: Kappa-type opioid receptor (Cavia porcellus, UniProt P41144); assay: Displacement of [3H]U-69593 from kappa-opioid receptor in guinea pig brain membrane
[3] = biological target: Sigma non-opioid intracellular receptor 1 (Cavia porcellus, UniProt Q60492); assay: Displacement of [3H]-(+)-Pentazocine from sigma1 receptor in guinea pig brain membrane
[4] = biological target: Kappa-type opioid receptor (Homo sapiens, UniProt P41145); assay: Agonist activity at recombinant kappa-opioid receptor in human HEK293 cells by [35S]-GTP-gammaS binding assay

Protein sequences, listed by entry. Tags and fused reporters are not part of them. Lines headed by an entry give the natural chain unless they say otherwise; changes in a name come on top.
UniProt P35372, whole entry, looked up: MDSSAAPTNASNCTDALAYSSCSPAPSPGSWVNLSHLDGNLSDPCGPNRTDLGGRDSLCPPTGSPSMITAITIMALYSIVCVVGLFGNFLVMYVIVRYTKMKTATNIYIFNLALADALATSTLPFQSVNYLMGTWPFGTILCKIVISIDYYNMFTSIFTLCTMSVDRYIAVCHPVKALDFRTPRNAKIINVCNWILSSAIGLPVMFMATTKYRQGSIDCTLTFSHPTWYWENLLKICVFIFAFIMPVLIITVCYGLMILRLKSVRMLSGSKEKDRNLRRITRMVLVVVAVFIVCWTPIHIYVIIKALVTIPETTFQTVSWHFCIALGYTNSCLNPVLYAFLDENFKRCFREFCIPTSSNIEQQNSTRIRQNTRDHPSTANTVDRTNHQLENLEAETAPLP
UniProt P41143, whole entry, looked up: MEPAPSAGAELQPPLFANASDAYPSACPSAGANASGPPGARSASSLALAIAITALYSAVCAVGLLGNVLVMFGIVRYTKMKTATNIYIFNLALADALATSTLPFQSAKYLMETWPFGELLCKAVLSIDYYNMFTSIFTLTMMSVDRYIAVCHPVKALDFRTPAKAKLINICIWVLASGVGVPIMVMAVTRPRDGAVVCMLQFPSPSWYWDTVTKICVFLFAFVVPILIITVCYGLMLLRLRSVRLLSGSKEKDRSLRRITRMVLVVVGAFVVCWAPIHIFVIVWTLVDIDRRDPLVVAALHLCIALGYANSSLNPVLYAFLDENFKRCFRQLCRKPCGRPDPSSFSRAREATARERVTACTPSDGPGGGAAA
UniProt P41144: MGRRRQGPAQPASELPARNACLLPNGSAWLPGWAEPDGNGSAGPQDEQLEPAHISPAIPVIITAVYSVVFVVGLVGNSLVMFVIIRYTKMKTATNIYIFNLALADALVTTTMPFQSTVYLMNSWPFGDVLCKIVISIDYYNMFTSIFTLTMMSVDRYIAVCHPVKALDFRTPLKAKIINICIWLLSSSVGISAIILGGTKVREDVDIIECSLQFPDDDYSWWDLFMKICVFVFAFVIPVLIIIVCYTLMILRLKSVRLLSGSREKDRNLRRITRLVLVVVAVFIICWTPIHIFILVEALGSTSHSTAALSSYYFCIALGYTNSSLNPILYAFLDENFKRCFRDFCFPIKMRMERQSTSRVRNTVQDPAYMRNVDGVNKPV
UniProt Q60492, whole entry, looked up: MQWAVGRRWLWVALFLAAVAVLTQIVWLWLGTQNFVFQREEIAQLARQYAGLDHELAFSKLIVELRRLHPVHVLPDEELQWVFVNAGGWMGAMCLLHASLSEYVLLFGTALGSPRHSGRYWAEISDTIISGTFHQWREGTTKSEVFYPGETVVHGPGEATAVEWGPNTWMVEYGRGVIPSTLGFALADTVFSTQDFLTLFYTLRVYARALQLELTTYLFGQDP
UniProt P41145: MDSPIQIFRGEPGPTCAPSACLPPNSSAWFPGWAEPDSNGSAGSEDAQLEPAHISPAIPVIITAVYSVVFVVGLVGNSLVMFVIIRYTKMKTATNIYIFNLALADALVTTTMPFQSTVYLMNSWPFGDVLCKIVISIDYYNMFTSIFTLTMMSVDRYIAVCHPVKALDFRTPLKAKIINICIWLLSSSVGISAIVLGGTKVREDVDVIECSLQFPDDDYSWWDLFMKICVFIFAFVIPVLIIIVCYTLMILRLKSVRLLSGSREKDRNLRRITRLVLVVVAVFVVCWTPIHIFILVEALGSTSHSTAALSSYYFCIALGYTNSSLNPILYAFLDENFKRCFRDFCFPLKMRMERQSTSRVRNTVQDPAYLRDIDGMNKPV

Row | Structure (SMILES) | IC50 (Mu-type opioid receptor) [µM] | IC50 [1] [µM] | Ki [2] [µM] | Ki [3] [µM] | EC50 [4] [µM]
1 | O=C(Cc1ccccc1)N1CCN[C@@H]2CCC[C@H](N3CCCC3)[C@H]21 | > 1 | > 1 | 0.435 | – | –
2 | COc1ccc(CN[C@H]2CCC[C@@H]3[C@@H]2NC(=O)C(=O)N3Cc2ccc(OC)cc2)cc1 | – | – | – | 0.368 | –
3 | O=C(Cc1ccccc1)N1CCN(Cc2ccccc2)[C@@H]2CCC[C@H](N3CCCC3)[C@H]21 | > 1 | > 1 | 0.129 | – | –
4 | O=C(Cc1ccc(Cl)c(Cl)c1)N1CCN(Cc2ccccc2)[C@@H]2CCC[C@H](N3CCCC3)[C@H]21 | > 1 | > 1 | – | – | 0.49
5 | CN(C(=O)Cc1ccccc1)[C@H]1CC[C@@]2(CCCO2)C[C@@H]1N1CCCC1 | – | – | 0.00088 | – | –
6 | COC(=O)N1CCN(C(=O)Cc2ccc(Cl)c(Cl)c2)[C@H]2[C@H]1CCC[C@@H]2N1CCCC1 | > 1 | > 1 | – | – | –
7 | O=C1N[C@@H]2[C@@H](NCc3ccc(Cl)cc3)CCC[C@H]2N(Cc2ccc(Cl)cc2)C1=O | – | – | – | 0.543 | –
8 | O=C(Cc1ccc(Cl)c(Cl)c1)N1CCN[C@@H]2CCC[C@H](N3CCCC3)[C@H]21 | > 1 | > 1 | 0.0021 | – | –
9 | CN(C(=O)Cc1ccc(Cl)c(Cl)c1)C1CCCCC1N1CCCC1 (stereo not drawn) | – | – | 0.00034 | – | –

Reference: ChEMBL document CHEMBL3297660, “Combination of cyclohexane and piperazine based κ-opioid receptor agonists: Synthesis and pharmacological evaluation of trans,trans-configured perhydroquinoxalines” (Bioorg Med Chem, 2014)
